Values quoted from earlier work, collected in patent US20250235417A1, “Compositions for acute and chronic wounds” (DEBx Medical Holding B.V., priority 2021, published 2025).

Details: cited from earlier work

Substance: Phenol sulphonic acid (o, m, p)
- pKa: <−3
